Five molecules from patent publication US11472877 (Alector, dated 2022) can be followed below.

By UniProt entry, the sequences of proteins in these tests, tags left out. Chains listed by the source or under a name are the forms on record and can include a tag or linker. Residues count along the entry.
UniProt Q9NP99, 21-234: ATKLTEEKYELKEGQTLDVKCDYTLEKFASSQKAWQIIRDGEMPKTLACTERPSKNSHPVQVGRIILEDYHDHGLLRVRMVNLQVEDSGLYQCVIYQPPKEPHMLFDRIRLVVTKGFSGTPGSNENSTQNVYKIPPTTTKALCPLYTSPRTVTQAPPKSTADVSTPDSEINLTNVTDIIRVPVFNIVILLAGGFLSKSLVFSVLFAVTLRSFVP
UniProt Q9NP99, 21-205 limits assumed, form in doubt: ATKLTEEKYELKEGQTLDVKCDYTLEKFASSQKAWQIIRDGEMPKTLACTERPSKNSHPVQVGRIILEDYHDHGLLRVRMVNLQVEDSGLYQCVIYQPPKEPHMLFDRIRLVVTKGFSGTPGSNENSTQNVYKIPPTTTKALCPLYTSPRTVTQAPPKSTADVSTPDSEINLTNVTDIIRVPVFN

What is called Kd is the equilibrium constant for the complex coming apart. Read a low Kd as higher affinity. A word on the koff: it is a measure of how fast the partners let go of each other. Read a high koff as fast dissociation. For orientation: kon means the second-order rate constant of association. Higher therefore signals faster complex formation.

Assay [1] concerns the target T1, human TREM1 on cells (human, UniProt Q9NP99 21-234).
T1 construct: Some reporter cells carry a human TREM1/CD3 zeta fusion instead; also called CHO-huT1; CHO-hT1
As to the kind of experiment: FACS, CHO human TREM1. For orientation: In flow cytometry, cells or beads pass a laser one at a time.

Assay [2] has as its target T1, human TREM1 on cells. As to the kind of experiment: FACS, human neutrophils.
The next assay has as its target human TREM1 (human, UniProt Q9NP99 21-205, limits assumed). As to the kind of experiment: IgG, monovalent; method and antigen form not stated.
Assay [3] deals with T1, human TREM1 on cells. As to the kind of experiment: cell-based or functional assay.
Assay [4] deals with T1, human TREM1 on cells. As to the kind of experiment: FACS ligand blocking on CHO-huTREM1, 10 ug/mL IgG; competitor hPGLYRP1/PGN-BS.
The next assay addresses T2, human TREM2 on BWZ cells (human, UniProt Q9NZC2 19-230).
T2 construct: whole, on cells; not tied to the cell line; also called BWZ Human TREM2
T2 sequence (looked up): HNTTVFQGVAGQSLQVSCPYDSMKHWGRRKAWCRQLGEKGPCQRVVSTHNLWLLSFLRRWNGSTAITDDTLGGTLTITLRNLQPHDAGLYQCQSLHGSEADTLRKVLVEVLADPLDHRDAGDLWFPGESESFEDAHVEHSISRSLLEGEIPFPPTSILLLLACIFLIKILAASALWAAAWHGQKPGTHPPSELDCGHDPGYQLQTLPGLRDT
As to the kind of experiment: FACS, BWZ human TREM2.

Another assay concerns the target T3, mouse TREM1 on CHO cells (mouse, UniProt Q9JKE2 21-230).
T3 construct: also called CHO-mT1
T3 sequence: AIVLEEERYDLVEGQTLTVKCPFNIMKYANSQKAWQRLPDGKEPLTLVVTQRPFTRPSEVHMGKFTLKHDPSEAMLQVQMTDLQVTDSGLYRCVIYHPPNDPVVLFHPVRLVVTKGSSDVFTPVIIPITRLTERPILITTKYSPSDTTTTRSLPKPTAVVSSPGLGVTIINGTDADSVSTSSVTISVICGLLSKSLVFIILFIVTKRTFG
As to the kind of experiment: FACS, CHO mouse TREM1.

The target in assay [5] is T4, mouse TREM2 on BWZ cells (mouse, UniProt Q99NH8 19-227).
T4 construct: whole, on cells; also called BWZ Mouse TREM2
T4 sequence (looked up): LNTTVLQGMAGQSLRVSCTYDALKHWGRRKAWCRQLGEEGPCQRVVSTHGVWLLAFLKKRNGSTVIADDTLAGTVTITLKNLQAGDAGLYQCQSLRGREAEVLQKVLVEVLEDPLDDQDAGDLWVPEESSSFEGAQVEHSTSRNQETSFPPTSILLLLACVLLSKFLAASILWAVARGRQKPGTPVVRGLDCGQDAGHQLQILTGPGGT
As to the kind of experiment: FACS, BWZ mouse TREM2.

In assay [6] the target is T1, human TREM1 on cells. As to the kind of experiment: FACS contour plots on CHO-huTREM1, anti-HIS PE against HuTREM1-GFP.
For assay [7], the target named is T4, mouse TREM2 on BWZ cells. As to the kind of experiment: FACS, BWZ cells.

B1: T1-76 (antibody, IgG1, V domains shown)
VH: not shown
VL: DIQMTQSPSTLSASVGDRVTITCRASQSISSWLAWYQQKPGKAPKLLIYDASSLESGVPSRFSGSGSGTEFTLTISSLQPDDFATYYCQQHSTYSWTFGGGTKVEIK
notes: huIgG1; also called TI-76; ADI-19153
In the case of B1, the “FOB Fold Over Background” value came out at 516 fold with human TREM1 on cells [1]; 3.2 fold in the assay with human TREM1 on cells [2]; 0.9 fold in the assay with human TREM2 on BWZ cells; 1 fold in the assay with mouse TREM1 on CHO cells; 1.2 fold with mouse TREM2 on BWZ cells [5]. In the assay with human TREM1, this molecule gave a Kd of 39.4 nM. Besides, the koff in the assay with human TREM1 was determined as 0.023 s⁻¹. Besides, the on-rate (kon) with human TREM1 was 583000 M⁻¹ s⁻¹. In addition, the “GFP expression, NFAT-GFP reporter cells expressing human TREM1, soluble antibody” value with human TREM1 on cells [3] is not below 3 fold. The “cell surface levels of TREM1, primary human neutrophils, FACS” value with human TREM1 on cells [3] is not below 65%. Moreover, the “% ligand binding blocked” value in the assay with human TREM1 on cells [4] is not below 85%.

B2: recombinant, His-tagged mouse PGLYRP1 (ligand, UniProt O88593 19-182, looked up)
chain: FIVPRSEWRALPSECSSRLGHPVRYVVISHTAGSFCNSPDSCEQQARNVQHYHKNELGWCDVAYNFLIGEDGHVYEGRGWNIKGDHTGPIWNPMSIGITFMGNFMDRVPAKRALRAALNLLECGVSRGFLRSNYEVKGHRDVQSTLSPGDQLYQVIQSWEHYRE
notes: also called mPGLYRP1; not shown: His tag
Consider B2, for which the binding result in the assay with human TREM1 on cells [6] was “no binding”.

B3: T1-58 (antibody, IgG1, V domains shown)
VH: QLQLQESGPGLVKPSETLSLTCTVSGGSISSSSYYWGWIRQPPGKGLEWIGSIYYSGSTYYNPSLKSRVTISVDTSKNQFSLKLSSVTAADTAVYYCARQEYGDGYFDLWGRGTLVTVSS
VL: not shown
notes: huIgG1; also called TI-58; ADI-19133
In the case of B3, the “FOB Fold Over Background” value in the assay with human TREM1 on cells [1] stood at 418 fold; with human TREM1 on cells [2] it was 2.6 fold; in the assay with human TREM2 on BWZ cells, 1 fold; with mouse TREM1 on CHO cells, 1.6 fold; with mouse TREM2 on BWZ cells [5] it was 1.2 fold. This molecule also displayed a dissociation constant (Kd) with human TREM1 of 25.1 nM. The same molecule came in with a koff with human TREM1 of 0.00374 s⁻¹. The molecule also had an association rate constant (kon) in the assay with human TREM1 of 149000 M⁻¹ s⁻¹. For the same molecule, the “% ligand binding blocked” value with human TREM1 on cells [4] is not below 50%. In addition, the binding result with mouse TREM2 on BWZ cells [7] was “no binding”.

B4: T1-52 (antibody, IgG1, V domains shown)
VH: QVQLVQSGAEVKKPGSSVKVSCKASGGTFSSYAISWVRQAPGQGLEWMGSIIPIFGTANYAQKFQGRVTITADESTSTAYMELSSLRSEDTAVYYCARDRGQYSSSWYGRMDVWGQGTTVTVSS
VL: DIQMTQSPSTLSASVGDRVTITCRASQSISSWLAWYQQKPGKAPKLLIYKASSLESGVPSRFSGSGSGTEFTLTISSLQPDDFATYYCQQSSADSPFTFGGGTKVEIK
notes: huIgG1; also called TI-52; ADI-19127
As for B4, the “FOB Fold Over Background” value with human TREM1 on cells [1] came to 475 fold; with human TREM1 on cells [2] it was 4.2 fold; with human TREM2 on BWZ cells, 1 fold; in the assay with mouse TREM1 on CHO cells, 3.2 fold; in the assay with mouse TREM2 on BWZ cells [5] it was 1.2 fold. For the same molecule, binding with human TREM1 was put at a Kd of 56.6 nM. This molecule returned a dissociation rate constant (koff) with human TREM1 of 0.024 s⁻¹. The kon in the assay with human TREM1 was found to be 423000 M⁻¹ s⁻¹. The “GFP expression, NFAT-GFP reporter cells expressing human TREM1, soluble antibody” value with human TREM1 on cells [3] was approximately 3 fold. Moreover, the “% ligand binding blocked” value with human TREM1 on cells [4] was not below 85%.

B5: T1-56 (antibody, IgG1, V domains shown)
VH: EVQLVESGGGLVQPGRSLRLSCAASGFTFDDYAMHWVRQAPGKGLEWVSGISWNSGSIGYADSVKGRFTISRDNAKNSLYLQMNSLRAEDTALYYCAKGPRLLGYFDLWGRGTLVTVSS
VL: not shown
notes: huIgG1; also called TI-56; ADI-19131
As to B5, the “FOB Fold Over Background” value amounted to 432 fold with human TREM1 on cells [1]; 6.8 fold with human TREM1 on cells [2]; 1.2 fold with human TREM2 on BWZ cells; 1.1 fold with mouse TREM1 on CHO cells; 1.3 fold with mouse TREM2 on BWZ cells [5]. Also, the Kd in the assay with human TREM1 amounted to 14 nM. The koff with human TREM1 stood at 0.014 s⁻¹. The molecule further displayed a kon in the assay with human TREM1 of 998000 M⁻¹ s⁻¹. For the same molecule, in the assay with human TREM1 on cells [3], the “cell surface levels of TREM1, primary human neutrophils, FACS” value is not below 65%. Moreover, the “% ligand binding blocked” value in the assay with human TREM1 on cells [4] was not below 85%.
